What all share (format): functional
For assay [1], the system named is Enterobacter cloacae. In words: Antibacterial activity expressed as MIC value was determined on Enterobacter cloacae A-21006 organism.
Assay [2] has as its system Escherichia coli. In words: Antibacterial activity expressed as MIC value was determined on Escherichia coli A-22356 organism.
Assay [3] deals with Escherichia coli. The assay can be described thus: Antibacterial activity expressed as MIC value was determined on Escherichia coli A-20665 organism.
The subject of assay [4] is Enterobacter cloacae. In words: Antibacterial activity expressed as MIC value was determined on Enterobacter cloacae A-9656 organism.
For assay [5], the system named is Pseudomonas aeruginosa. The assay can be described thus: Antibacterial activity expressed as MIC value was determined on Pseudomonas aeruginosa A-21508 organism.
For assay [6], the system named is Pseudomonas aeruginosa. The assay can be described thus: Antibacterial activity expressed as MIC value was determined on Pseudomonas aeruginosa A-20653 organism.
The subject of assay [7] is Enterobacter cloacae. In words: Antibacterial activity expressed as MIC value was determined on Enterobacter cloacae A-20364 organism.
In assay [8] the test system is Enterobacter cloacae. The assay can be described thus: Antibacterial activity expressed as MIC value was determined on Enterobacter cloacae A-21136 organism.

As a reminder, the MIC is the smallest concentration in the dilution series that meets the test's criterion for growth inhibition. Lower therefore signals inhibition by little substance.

For the sequence GENTAMICIN, the minimal inhibitory concentration (MIC) in assay [1], in assay [2], in assay [3], in assay [4], in assay [5] and in assay [6] was 0.5 µg/mL in each case. For the same sequence, the MIC in assay [7] amounted to 0.5 µg/mL; in assay [8], 2 µg/mL.

Source of the values: ChEMBL document CHEMBL1123524, “Aminoglycoside antibiotics. 6. Chemical reactions of aminoglycosides with disodium carbenicillin” (1986).
